The values that follow come from PMC7641332 (Nucleic Acids Research, 2020).

For this assay, the target named is T1, 2× MBP-BRCA2CT-FLAG-His10 (human, UniProt P51587 2300-3418).
T1 sequence: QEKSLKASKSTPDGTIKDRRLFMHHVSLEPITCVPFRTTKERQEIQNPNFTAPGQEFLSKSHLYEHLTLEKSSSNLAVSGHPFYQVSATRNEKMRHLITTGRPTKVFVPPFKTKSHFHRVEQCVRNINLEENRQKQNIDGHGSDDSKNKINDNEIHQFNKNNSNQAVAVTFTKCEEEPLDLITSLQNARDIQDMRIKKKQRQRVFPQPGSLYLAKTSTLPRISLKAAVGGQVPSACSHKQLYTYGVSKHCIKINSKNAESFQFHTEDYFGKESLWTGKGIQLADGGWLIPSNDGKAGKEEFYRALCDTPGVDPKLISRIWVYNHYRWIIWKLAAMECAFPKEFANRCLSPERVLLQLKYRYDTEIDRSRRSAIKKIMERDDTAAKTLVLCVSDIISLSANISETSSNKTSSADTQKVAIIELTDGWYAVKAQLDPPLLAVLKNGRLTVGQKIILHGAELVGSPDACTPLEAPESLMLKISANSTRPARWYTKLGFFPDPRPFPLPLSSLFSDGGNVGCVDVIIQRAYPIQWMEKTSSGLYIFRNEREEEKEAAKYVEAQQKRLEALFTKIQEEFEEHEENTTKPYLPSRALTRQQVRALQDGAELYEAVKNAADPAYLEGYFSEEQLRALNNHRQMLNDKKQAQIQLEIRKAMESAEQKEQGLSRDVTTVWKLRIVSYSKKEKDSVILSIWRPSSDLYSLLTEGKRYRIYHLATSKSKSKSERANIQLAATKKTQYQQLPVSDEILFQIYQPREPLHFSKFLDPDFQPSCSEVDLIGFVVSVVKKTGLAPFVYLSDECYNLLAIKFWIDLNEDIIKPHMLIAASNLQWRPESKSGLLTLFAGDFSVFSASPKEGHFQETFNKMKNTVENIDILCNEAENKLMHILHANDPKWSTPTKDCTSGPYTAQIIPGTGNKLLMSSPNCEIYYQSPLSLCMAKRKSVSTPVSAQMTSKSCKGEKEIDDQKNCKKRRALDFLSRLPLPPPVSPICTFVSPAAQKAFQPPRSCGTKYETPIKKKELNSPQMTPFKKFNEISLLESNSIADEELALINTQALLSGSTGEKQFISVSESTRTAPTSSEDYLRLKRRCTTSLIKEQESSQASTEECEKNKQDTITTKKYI
Briefly: pull-down.

B1: Human DSS1 protein (natural protein)
chain: MSEKKQPVDLGLLEEDDEFEEFPAEDWAGLDEDEDAHVWEDNWDDDNVEDDFSNQLRAELEKHGYKMETS
Consider B1, for which the “fold reduction of MBP-BRCA2CT bound to GST-BRCA2 with 1.5 μM DSS1” value turned out to be 11 fold.
